For 102 molecules, inhibition results are on record in PubChem BioAssay AID602440 (Sanford-Burnham Center for Chemical Genomics, 2012).

Chains of the proteins cited; added tags and fusions are not shown. Lines headed by an entry give the natural chain unless they say otherwise; changes in a name come on top.
UniProt Q96LD8: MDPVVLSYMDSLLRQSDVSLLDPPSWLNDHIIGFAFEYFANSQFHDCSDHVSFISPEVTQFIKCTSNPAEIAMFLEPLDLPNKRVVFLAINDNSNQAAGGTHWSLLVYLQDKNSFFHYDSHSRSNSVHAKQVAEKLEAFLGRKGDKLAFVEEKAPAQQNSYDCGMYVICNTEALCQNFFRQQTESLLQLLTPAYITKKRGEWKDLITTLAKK

The list shows a part of the results, in another mix than the full data. Calls of active or inactive are those of the source. Rule as the data show it: active = inhibition mostly above about 40% (no sharp cut-off); inactive = mostly below about 27%.

One may read the inhibition as the change of the read-out against control, counted positive when it falls.

The experiment has as its target Sentrin-specific protease 8 (Homo sapiens) (UniProt Q96LD8). Put plainly: blockers of SENP8 deneddylase activity – biochemical, fluorescence, Nedd8 protein substrate, uHTS, primary screen (AID 602440). Particulars: recombinant SENP8, Nedd8 substrate fluorescence; at 20 µM; active compounds read high.
As for `COc1ccccc1CNC(=O)COC(=O)C(O)(c1ccccc1)c1ccccc1`, the inhibition was inactive: 0.5%. In the case of `CC(C)/C=N\N=C(\N)N[N+](=O)[O-]`, the inhibition was inactive: 5.7%. Take `CN(C(=O)Cc1ccc(Cl)c(Cl)c1)[C@@H]1CCCC[C@H]1N1CCCC1`: the inhibition was inactive: 11.4%. With `CC1(CBr)Cn2c(nc3ccccc3c2=O)S1` (configuration not stated), the inhibition is inactive: 20.2%. Under `CCOP(=O)(NC(=NC(C)c1ccccc1)NC(C)c1ccccc1)OCC` (configuration not stated) stands inactive: 15.7%. Turning to `O=P1(Nc2ccccn2)COc2ccccc2OC1`, the inhibition was inactive: 34.4%.

Consider `CCC1=CC2Cc3nc4ccc(Cl)cc4c(N)c3C(C1)C2` (configuration not stated), for which the inhibition is inactive: -144%.

On to `CN(CCCl)Cc1cc(Cl)c(NC2=NCCN2)c(Cl)c1`, for which the inhibition is inactive: 5.2%. The value for `CCOP(=O)(Nc1ccc(C)cn1)OCC` was inactive: -10.3%. Under `CC(C)(C)C(=O)NC(Sc1ncccn1)C(Cl)(Cl)Cl` (configuration not stated) stands inactive: 1.8%; under `O=P1(N(CCCl)CCCl)NCCC(C(F)(F)F)O1` (configuration not stated), inactive: 8.6%; under `Clc1n[nH]nc1-c1nn[nH][15n]1`, inactive: 20.2%. As for `Cc1ccc(S(=O)(=O)N(CCCN)CCCc2c(C)nc(N)[nH]c2=O)cc1`, the inhibition is inactive: 27.1%. Under `O=P1(Nc2ncccn2)COc2ccccc2OC1` stands inactive: 13.9%.

As to `Nc1cccc([As](=O)(O)c2ccccc2)c1`, the inhibition was inactive: 17.5%. Under `O=P1(Nc2ccc(Br)cn2)COc2ccccc2OC1` stands inactive: 3.9%; under `NS(=O)(=O)c1cccc(NC(=O)COC(=O)C(O)(c2ccccc2)c2ccccc2)c1`, inactive: 11%. Under `O=[As](O)(c1cccs1)c1cccs1` stands inactive: 17.9%; under `Cc1ccc(OCC(=O)OC2CN3CCC2CC3)cc1` (configuration not stated), inactive: 7.8%. Consider `CC1CCC(C(C)C)C(OP(=O)(Nc2ccccn2)c2ccccc2)C1` (configuration not stated), for which the inhibition is inactive: 1.3%. Regarding `Cc1ccc(C(=O)OC2CN3CCC2CC3)cc1` (configuration not stated), the inhibition is inactive: 10.7%. Under `Cc1nn(-c2ccccc2)c2c1P(=O)(N1CCOCC1)N(C)C(c1ccccc1)=N2` (configuration not stated) stands inactive: -0.1%; under `CN(C)C1(CNC(=O)c2ccc(S(C)(=O)=O)cc2)CCCCC1`, inactive: 29.3%; under `CCCC1OP(=O)(Nc2ccccc2)OCC1CC` (configuration not stated), inactive: 7.7%. Regarding `O=C(/C=C/c1ccccc1)OC1CN2CCC1CC2` (configuration not stated), the inhibition is inactive: 6%.

With `NC(=O)Nc1ccc([As](=O)(O)O)cc1`, the inhibition is inactive: 9.6%.

Consider `CN(C(=O)Cc1ccccc1)[C@@H]1CC[C@]2(CCCO2)C[C@H]1N1CCCC1`, for which the inhibition is inactive: 12.1%. The value for `CCOP1(=S)c2c(C)nn(CCC#N)c2N=C(c2ccc(F)cc2)N1C` (configuration not stated) was inactive: -6.7%. Regarding `N#CCCN(C(=O)COC(=O)C(O)(c1ccccc1)c1ccccc1)c1ccc(F)cc1`, the inhibition is inactive: 9.4%.

On to `CN(C(=O)Cc1ccc(Cl)c(Cl)c1)[C@H]1CC[C@@]2(CCCO2)C[C@@H]1N1CCCC1`, for which the inhibition is inactive: 3.5%. Under `CN(C)C(=O)c1cc([N+](=O)[O-])cc2c1-c1c(cc([N+](=O)[O-])cc1[N+](=O)[O-])C2=O` stands active: 96.4%; under `O=[N+]([O-])c1ccc2c(c1)nnn2O`, inactive: 16.8%. Take `O=P(Nc1nccs1)(c1ccccc1)c1nc2ccccc2s1` (configuration not stated): the inhibition is inactive: 12.7%.

As for `O=P(Nc1nccs1)(Oc1ccccc1)Oc1ccccc1`, the inhibition was inactive: 11.8%. The value for `CCOP1(=S)c2c(C)nn(CCC#N)c2N=C(c2ccccc2F)N1C` (configuration not stated) was inactive: 17.6%; that for `CS(=O)(=O)c1cc([N+](=O)[O-])c2no[n+]([O-])c2c1` was inactive: 11.9%; that for `Nc1ccccc1[As](=O)(O)c1ccccc1` was inactive: 22.1%. With `O=C(O)COc1ccc([As](=O)(O)O)cc1[N+](=O)[O-]`, the inhibition was inactive: 20.7%. The value for `Nc1cccc2c([As](=O)(O)O)cccc12` was inactive: -23.2%. The value for `Cc1ccc(NCCc2c([N+](=O)[O-])cc([N+](=O)[O-])cc2[N+](=O)[O-])cc1` was inactive: 29%. Under `CCCOP(=S)(Nc1nc(N)cc(=O)[nH]1)OCCC` stands inactive: 12.5%. For `CCOP(=O)(Nc1cccc2ccccc12)OCC`, the inhibition was inactive: -0.3%. Under `COc1cc(C2NCCC3(OCCO3)C2(C)C)cc(OC)c1OC` (configuration not stated) stands inactive: 8%. Turning to `O=C(OC1CN2CCC1CC2)c1ccc(Cl)cc1` (configuration not stated), the inhibition is inactive: 32.8%. The value for `CS(=O)(=O)c1ccc(Cl)c(NC(=O)COC(=O)C(O)(c2ccccc2)c2ccccc2)c1` was inactive: -2.4%; that for `COc1cc(C(=O)NCC2(N3CCOCC3)CCCCC2)cc(Cl)c1OC(C)C` was inactive: 3.7%; that for `O=[As](O)(O)c1cccnc1` was inactive: 16.1%. `O=[As](O)(c1cccc(O)c1)c1cccc(O)c1`: the inhibition was inactive: 21.5%. Under `Cc1cccc(OCC(=O)OC2CN3CCC2CC3)c1` (configuration not stated) stands inactive: 16.6%; under `O=[N+]([O-])c1cc(Oc2ccc([N+](=O)[O-])cc2C(F)(F)F)cc([N+](=O)[O-])c1`, inactive: 3.3%; under `COc1ccc(N/C(=N/P(=O)(N2CCOCC2)N2CCOCC2)N2CCOCC2)cc1`, inactive: 21.3%. The value for `Cc1c2c(nc3ccccc13)SC(C(Cl)Cl)C2` (configuration not stated) was inactive: -6.5%.

For the molecule `Cc1cc(=O)[nH]c(N[N+](=O)[O-])n1`, the inhibition was inactive: 13.9%. The value for `O=C(OC1CN2CCC1CC2)C12CC3CC(CC(C3)C1)C2` (configuration not stated) was inactive: 26.3%; that for `O=P1(N(CCCl)CCCl)Nc2ccccc2N1` was inactive: 12.6%; that for `O=P1(N(CCCl)CCCl)OCCCN1CCCl` (configuration not stated) was inactive: -1.4%.

`COc1cc(I)ccc1[As](=O)(O)O`: the inhibition was inactive: 10.4%.

For the molecule `COc1ccc2nc(NP(=O)(c3ccccc3)c3ccccc3)sc2c1`, the inhibition was inactive: 9.6%.

Consider `ClCCSc1nnc(-c2cccnc2)o1`, for which the inhibition is inactive: 17.3%.

In the case of `CC(C)c1ccc(OP(=O)(Nc2ccccn2)Oc2ccccc2F)cc1` (configuration not stated), the inhibition is inactive: -106%. For `COC(=O)C1(C)COP(=O)(N2CCCCCC2)OC1` (configuration not stated), the inhibition was inactive: 9.3%. Turning to `O=[N+]([O-])c1cc([N+](=O)[O-])c(-c2ccn[nH]2)s1`, the inhibition was active: 33.3%.

With `O=C(OC1CN2CCC1CC2)c1cccc2[nH]cnc12` (configuration not stated), the inhibition is inactive: 0.6%. Regarding `CCN(CC)C(=S)SC(NC=O)C(Cl)(Cl)Cl` (configuration not stated), the inhibition was inactive: 22.2%.

Consider `CC(C)NC(=O)NP(=O)(Oc1ccccc1)Oc1ccccc1`, for which the inhibition is inactive: 11.1%. The value for `COc1cc(C(=O)NCC2(N3CCOCC3)CCCCC2)ccc1OCC(C)C` was inactive: 19.6%; that for `O=[N+]([O-])c1ccc(-c2cc([N+](=O)[O-])c(O)c([N+](=O)[O-])c2)cc1` was active: 61.4%. The value for `C[As](=O)(O)c1cccc(C(=O)O)c1` was inactive: 10.1%.

For the molecule `O=[As](O)(c1ccc(O)cc1)c1ccccc1O`, the inhibition is inactive: 10.9%. Under `[N-]=[N+]=NC1CCCCC1NC(=O)c1cc([N+](=O)[O-])cc([N+](=O)[O-])c1` (configuration not stated) stands inactive: 13.5%.

As to `Cc1ccc(OP(=O)(Nc2ccc([N+](=O)[O-])cn2)Oc2ccc(C)cc2)cc1`, the inhibition is inactive: 13.1%.

Regarding `Cc1ccc2nc3c(c(C)c2c1)CC(C(Cl)Cl)S3` (configuration not stated), the inhibition is inactive: -7.4%. In the case of `CCOC(=O)Nc1cccc([As](=O)(O)O)c1`, the inhibition was inactive: 9.9%. Regarding `O=P(Nc1ccccn1)(c1cccc2ccccc12)c1cccc2ccccc12`, the inhibition was inactive: -40.6%.

Turning to `Cc1cc(SC(NC=O)C(Cl)(Cl)Cl)ncn1` (configuration not stated), the inhibition was inactive: 14.4%.

`O=[N+]([O-])c1ccc(Nc2ccc(Oc3ccc([N+](=O)[O-])cc3[N+](=O)[O-])cc2)c([N+](=O)[O-])c1`: the inhibition was inactive: 39.3%. The value for `CCOC(=O)Nc1ccc([As](=O)(O)O)c(O)c1` was inactive: 24.3%; that for `O=C(O)C(O)c1ccc(N(CCCl)CCCl)cc1` (configuration not stated) was inactive: 6.7%. Under `CC1CCNP(=O)(N(CCCl)CCCl)O1` (configuration not stated) stands inactive: 1%. The value for `COP(=O)(OC)N1CC1c1ccccc1` (configuration not stated) was inactive: 11.6%; that for `Cc1cc(SC(NC(=O)c2ccccc2)C(Cl)(Cl)Cl)nc(C(C)C)n1` (configuration not stated) was inactive: -6.7%. Turning to `CCCCOc1ccc(C(=O)NCC2(N3CCCCC3)CCCCC2)cc1OC`, the inhibition is inactive: 4%. In the case of `CSc1ccc(Nc2c([N+](=O)[O-])cc([N+](=O)[O-])cc2[N+](=O)[O-])cc1`, the inhibition was active: 50.6%.

For the molecule `O=C(OC1CN2CCC1CC2)c1cccc([N+](=O)[O-])c1` (configuration not stated), the inhibition is inactive: 19.8%. With `CCOC(=O)c1ccc(NC(=O)C(C)(CCl)SC)cc1` (configuration not stated), the inhibition is inactive: 17.8%. The value for `CCC(C)N(CC(C)C)C(=S)SC(NC(C)=O)C(Cl)(Cl)Cl` (configuration not stated) was inactive: 3.7%; that for `COC(=O)C1(C)COP(=O)(N2CCCC2)OC1` (configuration not stated) was inactive: 6.9%. On to `COP1(=S)c2c(C)nn(CCC#N)c2N=C(c2ccc(F)cc2)N1C` (configuration not stated), for which the inhibition was inactive: 23.1%. Take `O=C(O)C(=O)c1ccc(N(CCCl)CCCl)cc1`: the inhibition was inactive: 7.2%. For the molecule `O=C(Nc1ccncc1[N+](=O)[O-])c1ccc([N+](=O)[O-])cc1[N+](=O)[O-]`, the inhibition is inactive: 34.3%. Consider `O=C(COc1ccccc1)OC1CN2CCC1CC2` (configuration not stated), for which the inhibition was inactive: 20%. Under `CCN(/C(=N/P(=O)(N1CCOCC1)N1CCOCC1)N1CCOCC1)c1ccc(OC)cc1` stands inactive: 5.7%; under `C[N+]1=C2C=CC=CC=C2SC12C([N+](=O)[O-])=CC([N+](=O)[O-])=C[C-]2[N+](=O)[O-]` (configuration not stated), active: 83.8%. Turning to `Nc1ccc([As](=O)(O)c2ccc(N)cc2)cc1`, the inhibition is inactive: 9.2%. The value for `c1cc(-c2nn[nH]n2)ccc1-c1nn[nH]n1` was inactive: 17.6%; that for `CC1CCN(C(=O)Oc2c(Cl)cc(Cl)c3cccnc23)CC1` was active: 41.7%. Regarding `CN(C)C(=O)OCCc1n(C)cc[n+]1C`, the inhibition was inactive: 6.8%. `CC(C)=N/N=C(\N)N[N+](=O)[O-]`: the inhibition was inactive: 5.3%. The value for `CC(C)c1nc(Nc2ccccc2)n(P(=O)(N(C)C)N(C)C)n1` was inactive: 10.5%.

Turning to `COc1ccc(C2=NCC(CBr)S2)cc1` (configuration not stated), the inhibition was inactive: 10.8%. Regarding `CCc1nc2c(n1)c1c(non1O)c1c2no[n+]1[O-]`, the inhibition is inactive: 6.3%.

In the case of `O=[N+]([O-])c1cc([N+](=O)[O-])c(CCNc2ccccc2)c([N+](=O)[O-])c1`, the inhibition is active: 38.7%.
